The results in this text go back to patent publication US9694016B2 (Novartis AG, priority 2013, dated 2017).

Chains of the proteins cited; added tags and fusions are not shown.
UniProt P04049, whole entry Y340E/Y341E: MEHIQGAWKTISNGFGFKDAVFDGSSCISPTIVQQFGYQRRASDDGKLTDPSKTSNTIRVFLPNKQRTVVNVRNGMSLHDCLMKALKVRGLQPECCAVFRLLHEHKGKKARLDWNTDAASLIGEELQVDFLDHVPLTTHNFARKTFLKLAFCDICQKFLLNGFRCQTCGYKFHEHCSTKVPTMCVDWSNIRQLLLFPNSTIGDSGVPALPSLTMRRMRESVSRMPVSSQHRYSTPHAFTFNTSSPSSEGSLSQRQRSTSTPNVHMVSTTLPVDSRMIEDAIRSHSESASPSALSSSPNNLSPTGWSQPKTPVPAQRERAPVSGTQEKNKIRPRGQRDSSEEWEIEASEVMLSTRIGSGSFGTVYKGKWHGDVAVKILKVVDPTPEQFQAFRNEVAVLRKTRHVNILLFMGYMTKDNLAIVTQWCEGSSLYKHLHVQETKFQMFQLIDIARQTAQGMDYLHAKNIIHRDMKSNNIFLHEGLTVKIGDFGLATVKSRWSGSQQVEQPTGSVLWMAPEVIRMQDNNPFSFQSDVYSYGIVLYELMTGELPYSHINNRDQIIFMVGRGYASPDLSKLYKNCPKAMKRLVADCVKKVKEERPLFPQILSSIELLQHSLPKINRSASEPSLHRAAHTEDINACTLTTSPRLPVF

The target in the first experiment is C-Raf FL (full-length C-Raf protein, Y340E and Y341E activating mutations) (Homo sapiens (Human), UniProt P04049, Y340E/Y341E). Type of experiment: biochemical. To be noted: AlphaScreen, 60 min pre-incubation, 1 hour reaction; read-out: c-Raf FL IC-50. In general terms: Alpha assays give light when donor and acceptor beads are brought close together.
Consider `Cc1ccc(NC(=O)c2ccnc(C(C)(F)F)c2)cc1-c1cc(N2CCOC[C@H]2C)c(=O)n(C)n1` [Example 674, (R)-2-(1,1-difluoroethyl)-N-(4-methyl-3-(1-methyl-5-(3-methylmorpholino)-6-oxo-1,6-dihydropyridazin-3-yl)phenyl)isonicotinamide], for which the IC50 worked out at 1 nM. As to `Cc1ccc(NC(=O)c2ccnc(C(C)(C)C#N)c2)cc1-c1cc(N2CCOCC2)nc(N[C@H](C)CO)n1` [Example 749, (R)-2-(2-cyanopropan-2-yl)-N-(3-(2-((1-hydroxypropan-2-yl)amino)-6-morpholinopyrimidin-4-yl)-4-methylphenyl)isonicotinamide], the IC50 stood at 0.5 nM.

For `Cc1ccc(NC(=O)c2ccnc(C(C)(C)C#N)c2)cc1-c1cc(N2CCOCC2)nc(NCCO)n1` [Example 734, 2-(2-cyanopropan-2-yl)-N-(3-(2-((2-hydroxyethyl)amino)-6-morpholinopyrimidin-4-yl)-4-methylphenyl)isonicotinamide], the IC50 was determined as 1.8 nM. With `Cc1ccc(NC(=O)c2ccnc(C(C)(C)C#N)c2)cc1-c1cc(N2CCOCC2)c(OC2CCOCC2)nn1` [Example 584, 2-(2-cyanopropan-2-yl)-N-(4-methyl-3-(5-morpholino-6-((tetrahydro-2H-pyran-4-yl)oxy)pyridazin-3-yl)phenyl)isonicotinamide], the IC50 came to 0.3 nM. On the same count and under the same terms, the same measure for `Cc1ccc(NC(=O)c2ccnc(C(C)(C)C#N)c2)cc1-c1cc(N2CCOC[C@@H]2C)c(=O)n(C)n1` [Example 663, (S)-2-(2-cyanopropan-2-yl)-N-(4-methyl-3-(1-methyl-5-(3-methylmorpholino)-6-oxo-1,6-dihydropyridazin-3-yl)phenyl)isonicotinamide]: 2.1 nM; for `Cc1ccc(NC(=O)c2ccnc(C(C)(C)C#N)c2)cc1-c1cc(N2C3CCC2COC3)c(=O)n(C)n1` [Example 669, N-(3-(5-(3-oxa-8-azabicyclo[3.2.1]octan-8-yl)-1-methyl-6-oxo-1,6-dihydropyridazin-3-yl)-4-methylphenyl)-2-(2-cyanopropan-2-yl)isonicotinamide]: 2.5 nM; for `Cc1ccc(NC(=O)c2ccnc(C(C)(F)F)c2)cc1-c1cc(N2C3CCC2COC3)cc(=O)n1C` [Example 691, N-(3-(4-(3-oxa-8-azabicyclo[3.2.1]octan-8-yl)-1-methyl-6-oxo-1,6-dihydropyridin-2-yl)-4-methylphenyl)-2-(1,1-difluoroethyl)isonicotinamide]: 3.2 nM.

For the compound `CCNc1nc(-c2cc(NC(=O)c3cnnc(C(C)(C)C#N)c3)ccc2C)cc(N2CCOCC2)n1` [Example 709, 6-(2-cyanopropan-2-yl)-N-(3-(2-(ethylamino)-6-morpholinopyrimidin-4-yl)-4-methylphenyl)pyridazine-4-carboxamide], the IC50 came to 1.3 nM. Same read-out and setting: the same measure for `Cc1ccc(NC(=O)c2ccnc(C(F)F)c2)cc1-c1cc(N2CCOCC2)n(C)c(=O)c1` [Example 486, 2-(difluoromethyl)-N-(4-methyl-3-(1-methyl-6-morpholino-2-oxo-1,2-dihydropyridin-4-yl)phenyl)isonicotinamide]: 0.3 nM.

Still in this experiment, the particulars now being: AlphaScreen, 60 min pre-incubation, reaction 1 hour at room temperature; read-out: c-Raf FL IC-50.
For the compound `Cc1ncc(NC(=O)c2ccnc(C(F)(F)F)c2)cc1-c1cc(N2CCOCC2)c(S(C)(=O)=O)nn1` [Example 921, N-(6-methyl-5-(6-(methylsulfonyl)-5-morpholinopyridazin-3-yl)pyridin-3-yl)-2-(trifluoromethyl)isonicotinamide], the IC50 stood at 1.82 nM. On the same count and under the same terms, the same measure for `Cc1ccc(NC(=O)c2ccnc(C(C)(C)C#N)c2)cc1-c1cnc(OCCO)c(N2CCOCC2)c1` [Example 998, 2-(2-cyanopropan-2-yl)-N-(3-(6-(2-hydroxyethoxy)-5-morpholinopyridin-3-yl)-4-methylphenyl)isonicotinamide]: 0.7 nM.

Regarding `Cc1ncc(NC(=O)c2cc(C3CC3)on2)cc1-c1cc(N2CCOCC2)nc(N2CC(O)C2)c1` [Example 1093, 5-cyclopropyl-N-(2′-(3-hydroxyazetidin-1-yl)-2-methyl-6′-morpholino-[3,4′-bipyridin]-5-yl)isoxazole-3-carboxamide], the IC50 came out at 0.9 nM. As to `Cc1ncc(NC(=O)c2ccnc(C(C)(C)C#N)c2)cc1-c1cnc(OC(C)C)c(N2CCOCC2)c1` [Example 954, 2-(2-cyanopropan-2-yl)-N-(6′-isopropoxy-2-methyl-5′-morpholino-[3,3′-bipyridin]-5-yl)isonicotinamide], the IC50 was 2.43 nM. Same read-out and setting: under `Cc1ncc(NC(=O)c2ccnc(C(C)C)c2)cc1-c1ccnc(N2CCOCC2)c1` [Example 1136, 2-isopropyl-N-(2-methyl-2′-morpholino-[3,4′-bipyridin]-5-yl)isonicotinamide] stands 0.58 nM; under `Cc1ccc(NC(=O)c2cncc(C(F)(F)F)c2)cc1-c1cc(N2CCOCC2)c(=O)n(C)n1` [Example 909, N-(4-methyl-3-(1-methyl-5-morpholino-6-oxo-1,6-dihydropyridazin-3-yl)phenyl)-5-(trifluoromethyl)nicotinamide], 0.32 nM; under `Cc1ccc(NC(=O)c2ccnc(C3(C#N)CC3)c2)cc1-c1cc(NCCO)nc(N2CCOCC2)c1` [Example 1050, 2-(1-cyanocyclopropyl)-N-(3-(2-((2-hydroxyethyl)amino)-6-morpholinopyridin-4-yl)-4-methylphenyl)isonicotinamide], 0.26 nM.

The same experiment, now with this note: Table 2; AlphaScreen, 1 hour reaction; read-out: c-Raf FL IC-50.
In the case of `CCOc1ncc(-c2cc(NC(=O)c3cccc(S(C)(=O)=O)c3)cnc2C)cc1N1CCOCC1` [Example 242, N-(6′-ethoxy-2-methyl-5′-morpholino-[3,3′-bipyridin]-5-yl)-3-(methylsulfonyl)benzamide], the IC50 was 1.8 nM. Same read-out and setting: under `CCOc1ncc(-c2cc(NC(=O)c3cnnc(C(C)(C)C#N)c3)cnc2C)cc1N1CCOC[C@H]1C` [Example 303, (R)-6-(2-cyanopropan-2-yl)-N-(6′-ethoxy-2-methyl-5′-(3-methylmorpholino)-[3,3′-bipyridin]-5-yl)pyridazine-4-carboxamide] stands 14.4 nM. Same read-out and setting: the same measure for `Cc1ccc(NC(=O)c2cccc(C(F)(F)F)c2)cc1-c1cc(N2CCO[C@H](C)C2)nc(N2CCOCC2)n1` [Example 53, (R)—N-(4-methyl-3-(6-(2-methylmorpholino)-2-morpholinopyrimidin-4-yl)phenyl)-3-(trifluoromethyl)benzamide]: 0.7 nM. On to `Cc1ccc(NC(=O)c2ccnc(S(C)(=O)=O)c2)cc1-c1cc(N2CCOCC2)c(=O)n(C)c1` [Example 184, N-(4-methyl-3-(1-methyl-5-morpholino-6-oxo-1,6-dihydropyridin-3-yl)phenyl)-2-(methylsulfonyl)isonicotinamide], for which the IC50 turned out to be 0.8 nM. In the case of `Cc1ccc(NC(=O)c2cccc(C(F)(F)F)c2)cc1-c1cc(N2CCOCC2)nc(OCCO)n1` [Example 40, N-(3-(2-(2-hydroxyethoxy)-6-morpholinopyrimidin-4-yl)-4-methylphenyl)-3-(trifluoromethyl)benzamide], the IC50 stood at 0.2 nM.

`Cc1ccc(NC(=O)c2cccc(C(F)(F)F)c2)cc1-c1cc(N2CCOCC2)c(=O)n([C@@H](C)C#N)c1` [Example 149, (S)—N-(3-(1-(1-cyanoethyl)-5-morpholino-6-oxo-1,6-dihydropyridin-3-yl)-4-methylphenyl)-3-(trifluoromethyl)benzamide]: the IC50 was 0.3 nM.
